Results on seven molecules are retold here after patent US9340577B2, “HLA binding motifs and peptides and their uses” (priority 1992, dated 2016).

pIC50: −log10 of the molar value.

Among the targets are DR7 (DRB1*0701) (Homo sapiens, UniProt P01903+P01911, A100R/A102G/A103Q/D57E/D86V/E43K/F76Y/K127E/L162R/M171V/P40G/Q125H/Q99D/R33Q/R42Y/R54Q/S133A/S66F/T210M/V115G/Y107V/Y59L/Y89S); DRB1*1302 (Homo sapiens, UniProt P01903+P01911, A100E/A169T/K41T/L162R/M171V/P40S/Q125H/Q178H/Q39Y/Q99D/R42S/S66N/T262R/V115G/W38E/Y61H); DRB1*1501 (Homo sapiens, UniProt P01903+P01911).
What all share (experiment): biochemical

`CC[C@H](C)[C@H](NC(=O)[C@H](Cc1ccc(O)cc1)NC(=O)[C@H](Cc1ccc(O)cc1)NC(=O)[C@@H](NC(=O)CN)C(C)C)C(=O)N[C@@H](CCCCN)C(=O)N[C@@H](CC(=O)O)C(=O)NCC(=O)N[C@@H](CC(=O)O)C(=O)N[C@H](C(=O)N[C@H](C(=O)N[C@@H](Cc1ccc(O)cc1)C(=O)N[C@@H](Cc1ccc(O)cc1)C(=O)N[C@H](C(=O)N[C@@H](CCC(N)=O)C(=O)O)C(C)C)[C@@H](C)O)[C@@H](C)O` [Peptide 90.0216]: the pIC50 (as a rule, the IC50 on a negative log10 scale, so that one unit is a factor of ten) against DR7 (DRB1*0701) is 5.47; against DRB1*1302 it was 6.57.
For `CC(C)C[C@H](NC(=O)[C@H](C)NC(=O)[C@H](CO)NC(=O)[C@H](CC(C)C)NC(=O)[C@H](Cc1ccccc1)NC(=O)[C@H](CO)NC(=O)[C@@H](N)C(C)C)C(=O)N[C@@H](CCCCN)C(=O)N[C@@H](CC(C)C)C(=O)N[C@@H](Cc1ccccc1)C(=O)N[C@@H](CC(C)C)C(=O)N[C@@H](CCCCN)C(=O)NCC(=O)N[C@H](C(=O)N1CCC[C@H]1C(=O)O)C(C)C` [Peptide 89.0053], in that order: 6.24 and 5.88.
`CC[C@H](C)[C@H](NC(=O)[C@H](CCC(=O)O)NC(=O)[C@H](CO)NC(=O)[C@H](CC(=O)O)NC(=O)[C@H](CC(=O)O)NC(=O)[C@H](CCSC)NC(=O)[C@@H](NC(=O)[C@H](CC(=O)O)NC(=O)[C@H](CC(N)=O)NC(=O)[C@@H](N)CC(=O)O)C(C)C)C(=O)N[C@@H](C)C(=O)N[C@@H](Cc1ccc(O)cc1)C(=O)N[C@@H](CCCCN)C(=O)N[C@@H](Cc1ccc(O)cc1)C(=O)N[C@@H](C)C(=O)O` [Peptide 90.0069]: the pIC50 at DR7 (DRB1*0701) was 5.19.
Same read-out and setting: to `CC[C@H](C)[C@H](NC(=O)[C@H](CC(N)=O)NC(=O)[C@H](CO)NC(=O)[C@@H](NC(=O)[C@@H](NC(=O)[C@H](CC(C)C)NC(=O)[C@H](CC(C)C)NC(=O)[C@@H]1CCCN1C(=O)[C@@H]1CCCN1C(=O)[C@H](CS)NC(=O)[C@H](CCCCN)NC(=O)[C@H](CC(C)C)NC(=O)[C@H](CCC(N)=O)NC(=O)[C@H](CCSC)NC(=O)[C@@H](N)CC(C)C)[C@@H](C)CC)[C@@H](C)O)C(=O)O` [Peptide 89.0057] belongs 5.93.
As to `CC(C)C[C@H](NC(=O)[C@H](CC(=O)O)NC(=O)[C@H](C)NC(=O)[C@H](Cc1ccccc1)NC(=O)[C@H](C)NC(=O)[C@H](Cc1ccccc1)NC(=O)[C@H](CC(=O)O)NC(=O)[C@H](Cc1ccc(O)cc1)NC(=O)[C@@H](NC(=O)[C@H](CCC(=O)O)NC(=O)[C@@H](N)CO)C(C)C)C(=O)N[C@H](C(=O)N[C@H](C(=O)N[C@H](C(=O)N[C@@H](Cc1ccc(O)cc1)C(=O)O)C(C)C)C(C)C)[C@@H](C)O` [Peptide 85.0024], at DRB1*1501, the pIC50 was 5.94.
`CC[C@H](C)[C@H](NC(=O)[C@H](CO)NC(=O)[C@H](CC(N)=O)NC(=O)[C@@H](N)CCC(=O)O)C(=O)N[C@@H](CCC(N)=O)C(=O)N[C@@H](C)C(=O)N[C@@H](CC(=O)O)C(=O)N[C@H](C(=O)N[C@@H](CCC(=O)O)C(=O)N[C@@H](C)C(=O)N[C@@H](C)C(=O)N[C@@H](CCCNC(=N)N)C(=O)N[C@@H](C)C(=O)N[C@@H](CC(C)C)C(=O)N[C@@H](Cc1ccccc1)C(=O)O)[C@@H](C)O` [Peptide 90.0078]: the pIC50 on DR7 (DRB1*0701) was 5.24.
Same read-out and setting: the figure for `CC[C@H](C)[C@H](NC(=O)[C@@H](NC(=O)[C@H](CCSC)NC(=O)[C@H](CS)NC(=O)[C@@H](NC(=O)[C@H](CCC(=O)O)NC(=O)[C@@H]1CCCN1C(=O)[C@@H](NC(=O)[C@H](CO)NC(=O)[C@H](CC(C)C)NC(=O)[C@H](CC(C)C)NC(=O)[C@H](CC(N)=O)NC(=O)[C@@H](N)CO)[C@@H](C)CC)[C@@H](C)O)C(C)C)C(=O)N[C@@H](CCC(=O)O)C(=O)N1CCC[C@H]1C(=O)O` [Peptide 89.0067] is 6.71.
